Laboratory results reported in ChEMBL document CHEMBL2046406 (J Med Chem, 2012).
Activity calls are given as the source filed them. The rule behind the calls is not given here.

The chains behind the UniProt entries cited, without tags or fusion partners.
UniProt P35372, whole entry: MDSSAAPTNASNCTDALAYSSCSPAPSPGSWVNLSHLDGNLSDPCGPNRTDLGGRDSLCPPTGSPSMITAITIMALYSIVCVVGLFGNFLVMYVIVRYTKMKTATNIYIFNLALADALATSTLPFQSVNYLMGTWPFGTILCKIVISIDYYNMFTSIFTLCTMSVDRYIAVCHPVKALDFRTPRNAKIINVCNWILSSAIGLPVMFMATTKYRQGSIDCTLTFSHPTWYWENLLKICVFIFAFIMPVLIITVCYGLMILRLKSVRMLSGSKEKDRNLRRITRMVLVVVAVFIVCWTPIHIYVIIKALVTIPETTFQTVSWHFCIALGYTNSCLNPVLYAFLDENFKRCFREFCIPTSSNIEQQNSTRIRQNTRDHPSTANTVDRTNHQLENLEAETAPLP

What was measured:
Mu-type opioid receptor [1] = target: T1, Mu-type opioid receptor (Homo sapiens, UniProt P35372); test: Antagonist activity at human mu opioid receptor expressed in CHO cells assessed as inhibition of DAMGO-induced […]GTPgammaS binding after 60 mins by scintillation counting relative to control; assay type: functional, cell-based
Homo sapiens [2] = organism: Homo sapiens; test: Selectivity index, ratio of inhibition of human delta opioid receptor to inhibition of human mu opioid receptor
Homo sapiens [3] = organism: Homo sapiens; test: Selectivity index, ratio of inhibition of human kappa opioid receptor to inhibition of human mu opioid receptor
Mu-type opioid receptor [4] = target: T1, Mu-type opioid receptor; test: Agonist activity at human mu opioid receptor expressed in CHO cells assessed as stimulation of […]GTPgammaS binding after 60 mins by scintillation counting relative to control; assay type: functional, cell-based
Procedure, shortened: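 Membranes from CHO cells stably expressing human KOR (15 μg protein per tube) or MOR (7.5 μg protein per tube). Nonspecific binding with 10 μM GTPγS. Filtration, then scintillation counting. Triplicate, at least three experiments.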

Row | Structure (SMILES) | Imax (Mu-type opioid receptor [1]) | Selectivity ratio (Homo sapiens [2]) | Selectivity ratio (Homo sapiens [3]) | Emax (Mu-type opioid receptor [4]) [%]
1 | CN1CC[C@]23c4c5ccc(NCc6cccc(O)c6)c4O[C@H]2[C@@H](O)C=C[C@H]3[C@H]1C5 | inactive | 130 | > 1400 | 110
2 | CN1CC[C@]23CCCC[C@H]2[C@H]1Cc1ccc(NCc2cccc(O)c2)cc13 | inactive | 24 | 1700 | 85
